Source: patent US5216165A, “N-substituted aminoquinolines as analgesic agents” (American Home Products Corporation, priority 1992, dated 1993)

Sequences of proteins named here, by UniProt entry; tags and fusion partners are left off.
UniProt O70526, whole entry, looked up: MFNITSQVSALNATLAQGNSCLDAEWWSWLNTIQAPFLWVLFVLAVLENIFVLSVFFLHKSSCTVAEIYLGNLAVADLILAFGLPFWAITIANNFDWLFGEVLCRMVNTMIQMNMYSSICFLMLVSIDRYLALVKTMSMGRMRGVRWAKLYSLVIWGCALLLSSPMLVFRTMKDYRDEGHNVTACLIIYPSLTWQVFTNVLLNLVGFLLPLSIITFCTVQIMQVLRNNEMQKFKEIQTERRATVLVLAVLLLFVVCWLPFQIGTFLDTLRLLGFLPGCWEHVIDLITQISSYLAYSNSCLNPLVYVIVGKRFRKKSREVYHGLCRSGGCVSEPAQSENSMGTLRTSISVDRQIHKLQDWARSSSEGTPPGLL

How the values were obtained:
BK2 receptor = BK2 receptor (Cavia porcellus, UniProt O70526); experiment: competition with tritiated bradykinin (3H-BK) for BK2 receptor sites in guinea pig ileum; format: binding; conditions: guinea pig ileum homogenate, 80 pM 3H-BK, 90 min, 25° C., pH 6.8
[1] = tested on: bradykinin-induced writhing response; experiment: inhibition of the writhing response induced in mice by exogenous administration of bradykinin; format: in vivo, mice (male CD-1); conditions: bradykinin 0.5 mg/kg i.p. after PGE2

## CCCC(=O)N(Cc1ccc(Nc2ccnc3cc(Cl)ccc23)cc1)C1CCN(Cc2ccccc2)CC1
BK2 receptor
  IC50: 2500 nM
[1]
  % Inhibition at 30 mg/kg i.p.: 37%
